For data set [1], the system named is H292-HGF human lung cancer xenograft. The data set is described as follows: Efficacy of bispecific molecule and other inhibitors of EGFR and c-Met, subcutaneous H292-HGF human lung cancer xenograft. It is filed as in vivo, SCID/Beige mice. Conditions: for Tumor volume: mean ± SEM.
The conditions of data set [2]: mouse, in vivo.

Where “and” joins values, the source holds several entries; their conditions need not be identical. Identical values can stand only once.

Regarding cetuximab, the “Tumor Size at day 23” value in data set [1] (bispecific 25 mg/kg, crizotinib, erlotinib 50 mg/kg, cetuximab 1 mg/mouse) is 485 mm^3 and 485 ± 61 mm^3. Besides, the Tumor volume turned out to be 139 ± 10 mm^3 in data set [1] (day 7 (start of treatment)); 168 ± 13 mm^3 in data set [1] (day 9); 212 ± 20 mm^3 in data set [1] (day 13); 252 ± 28 mm^3 in data set [1] (day 16); 371 ± 48 mm^3 in data set [1] (day 20); 485 ± 61 mm^3 in data set [1] (day 23). Further, the Tumor volume in data set [1] (day 27) worked out at 640 ± 82 mm^3; in data set [1] (day 30) it was 869 ± 100 mm^3. This substance also had a T/C in data set [1] (day 23, treated versus vehicle mean tumor volume) of 28%. For the same substance, in data set [1] (mouse, in vivo), the “antitumor activity (in words)” value was “significant antitumor activities”. In addition, in data set [1] (versus vehicle group), the “T-C at 1000 mm^3 (tumor growth delay)” value amounted to 17 days. Moreover, the “toxicity, body weight loss, tolerability (in words)” value in data set [2] is “well tolerated”.
